Literature values in patent US20110111013A1.

Details: Roy et al., J. Pharm. Sci. 1996

## CCC(=O)N(c1ccccc1)C1CCN(CCc2ccccc2)CC1
  concentration of fentanyl in the polyisobutylene matrix above which active ingredient precipitates: more than 4%

Some compounds may have been tested in ways that are not shown here.
